Laboratory results taken from patent US20260174749A1, “COMBINATION THERAPY WITH SUBSTITUTED 3-((3-AMINOPHENYL)AMINO)PIPERIDINE-2,6- DIONE COMPOUNDS” (Bristol-Myers Squibb Company, priority 2022, published 2026).

System: 22RV1 cells
Test: CTG proliferation assay, in-vitro combination screen, 22RV1
Type: cell-based
Conditions: second agent in combination with Compound I, 7 days
Procedure: Three prostate cancer cell lines LNCAP, VCAP, and 22RV1 were used in this screen. Briefly, LNCaP cells were cultured in RPMI medium supplemented with 10% FBS, 1% penicillin/streptomycin, 10 mM HEPES, 1 mM sodium pyruvate, and 1.5 g/L sodium bicarbonate. […] PC3 cells were cultured in F12K medium supplemented with 10% FBS and 1% penicillin/streptomycin. 22RV1 cells were cultured in RPMI1640 medium supplemented with 10% FBS and 1% penicillin/streptomycin. […] VCaP cells were cultured in DMEM medium supplemented with 10% FBS, 1% penicillin/streptomycin 1 mM sodium pyruvate, 1.5 g/L sodium bicarbonate on high bind treated tissue culture flasks (Corning CellBIND) to increase cell surface attachment. […] The combination plates seeded with cells were then incubated for 7 days at 37° C. and 5% CO2. Cell viability assays were then performed on the plates using Promega CellTiter-Glo (CTG) Luminescent Cell Viability Assay kit and following the manufacturer's protocol. 20 μL of CTG reagent was added to each well of the 384 well plate, and plates were then incubated for 45 minutes before measuring the […] using PerkinElmer EnVision Plate Reader.
Synergy is calculated by Bliss and HSA excess scores. […] A negative HSA excess score indicates antagonism, while a positive HSA excess indicates additivity and synergy is detected when also the Bliss excess score is positive. […]

Structure (SMILES): CNC(=O)c1cc(Oc2ccc(NC(=O)Nc3ccc(Cl)c(C(F)(F)F)c3)cc2)ccn1 [Sorafenib, sorafenib]
- Synergy excess: 0.17
